Laboratory results as given in ChEMBL document CHEMBL4265952, “One-pot, multi-component synthesis and structure-activity relationships of peptoid-based histone deacetylase (HDAC) inhibitors targeting malaria parasites” (Eur J Med Chem, 2018).

Columns and labels:
Plasmodium falciparum [1] = assay: microbe, parasite or virus in culture; settings: 3D7, 3 h
in vitro [2] = settings: human, erythrocytes
in vitro [3] = settings: human, erythrocytes; remark: listed apart in the source
Plasmodium falciparum [4] = assay: microbe, parasite or virus in culture; settings: Dd2, 3 h
NFF = assay: cells; settings: Homo sapiens
Plasmodium falciparum [5] = assay: microbe, parasite or virus in culture; assay type: functional, organism-based; settings: NF54, 72 h
Plasmodium falciparum [6] = assay: microbe, parasite or virus in culture; assay type: functional, organism-based; settings: NF54, 48 h
cells = settings: Homo sapiens, HepG2A16, 48 h
Plasmodium falciparum [7] = assay: Gametocytocidal activity against transgenic GFP-fused Plasmodium falciparum NF54 late stage gametocytes after 72 hrs by Mitotracker Red CMH2XRos staining based imaging method; assay type: functional, organism-based; settings: NF54, 72 h

| SMILES | IC50 (Plasmodium falciparum [1]) | selectivity ratio (in vitro [2]) | selectivity ratio (in vitro [3]) | IC50 (Plasmodium falciparum [4]) | IC50 (NFF) | IC50 (Plasmodium falciparum [5]) | IC50 (Plasmodium falciparum [6]) | IC50 (cells) | IC50 (Plasmodium falciparum [7]) |
| --- | --- | --- | --- | --- | --- | --- | --- | --- | --- |
| Cc1ccc(NC(=O)CN(Cc2ccc(C(=O)NO)cc2)C(=O)c2cc(C)cc(C)c2)cc1 | 33 nM |  |  |  |  |  |  |  |  |
| CC(C)(C)NC(=O)CN(Cc1ccc(C(=O)NO)cc1)C(=O)c1cccc2ccccc12 | 59 nM | 169 to 196 | 169 to 196 | 51 nM | > 10000 nM |  |  |  |  |
| CN(C)c1ccc(C(=O)N(CC(=O)NC2CCCCC2)Cc2ccc(C(=O)NO)cc2)cc1 | 9 nM |  |  | 15 nM | 5890 nM | 2360 nM | 2460 nM | 7800 nM | 1810 nM |
| Cc1ccc(C(=O)N(CC(=O)NC2CCCCC2)Cc2ccc(C(=O)NO)cc2)cc1C |  |  |  | 21 nM | > 10000 nM |  | 13100 nM | 22000 nM |  |
| CN(C)c1ccc(C(=O)N(CC(=O)NC(C)(C)C)Cc2ccc(C(=O)NO)cc2)cc1 | 11 nM |  |  | 14 nM | 4480 nM | 4410 nM | 7690 nM | 11900 nM | 2720 nM |
| Cc1cccc(C(=O)N(CC(=O)NC2CCCCC2)Cc2ccc(C(=O)NO)cc2)c1 | 43 nM | 208 to 233 | 208 to 233 | 48 nM | > 10000 nM |  |  |  |  |
| CCCCNC(=O)CN(Cc1ccc(C(=O)NO)cc1)C(=O)c1cc(C)cc(C)c1 | 47 nM | 178 to 213 | 178 to 213 | 56 nM | > 10000 nM |  |  |  |  |
| CN(C)c1cccc(C(=O)N(CC(=O)NC2CCCCC2)Cc2ccc(C(=O)NO)cc2)c1 | 44 nM | 227 to 270 | 227 to 270 | 37 nM | > 10000 nM |  |  |  |  |
| CC(C)(C)NC(=O)CN(Cc1ccc(C(=O)NO)cc1)C(=O)c1ccccc1 | 158 nM | 63 to 185 | 63 to 185 | 54 nM | > 10000 nM |  |  |  |  |
| Cc1ccccc1C(=O)N(CC(=O)NC1CCCCC1)Cc1ccc(C(=O)NO)cc1 | 76 nM | 132 to 175 | 132 to 175 | 57 nM | > 10000 nM |  |  |  |  |
| Cc1ccc(NC(=O)CN(Cc2ccc(C(=O)NO)cc2)C(=O)c2ccccc2)cc1 | 67 nM | 149 to 189 | 149 to 189 | 53 nM | > 10000 nM |  | 9410 nM |  |  |
| CC1=C[C@@H](C)[C@H]2[C@@H]3C(=O)C(Cl)(Cl)C(=O)[C@H](C)C(=O)O[C@@H](C)/C=C/C=C\[C@@H](C)[C@@H]3C=C[C@@H]2C1 |  |  |  |  |  |  | 41 nM |  |  |
| Cc1ccc(C(=O)N(CC(=O)NC(C)(C)C)Cc2ccc(C(=O)NO)cc2)cc1C | 20 nM |  |  | 12 nM | > 10000 nM |  |  | 25900 nM |  |
| Cc1cc(C)cc(C(=O)N(CC(=O)NC2CCCCC2)Cc2ccc(C(=O)NO)cc2)c1 | 21 nM |  |  | 33 nM | > 10000 nM | 8370 nM | 15700 nM | 21200 nM | 5250 nM |
| CCCCNC(=O)CN(Cc1ccc(C(=O)NO)cc1)C(=O)c1cccc(N(C)C)c1 | 51 nM | 196 to 233 | 196 to 233 | 43 nM | > 10000 nM |  |  |  |  |
| Cc1ccc(NC(=O)CN(Cc2ccc(C(=O)NO)cc2)C(=O)c2ccc(N(C)C)cc2)cc1 |  |  |  | 20 nM | 5380 nM | 5900 nM | 4350 nM | 5810 nM | 3890 nM |
| CN(C)c1cccc(C(=O)N(CC(=O)NC(C)(C)C)Cc2ccc(C(=O)NO)cc2)c1 | 47 nM | 213 to 345 | 213 to 345 | 29 nM | > 10000 nM |  |  |  |  |
| O=C(CN(Cc1ccc(C(=O)NO)cc1)C(=O)c1cccc2ccccc12)NC1CCCCC1 |  |  |  |  | > 10000 nM |  |  | > 50000 nM |  |
| Cc1cc(C)cc(C(=O)N(CC(=O)NC(C)(C)C)Cc2ccc(C(=O)NO)cc2)c1 | 50 nM | 200 to 244 | 200 to 244 | 41 nM | > 10000 nM |  |  |  |  |
| O=C(CN(Cc1ccc(C(=O)NO)cc1)C(=O)c1ccccc1)NC1CCCCC1 | 59 nM | 85 to 169 | 85 to 169 | 118 nM | > 10000 nM |  |  |  |  |
| CC(C)c1ccc(C(=O)N(CC(=O)NC2CCCCC2)Cc2ccc(C(=O)NO)cc2)cc1 | 4 nM |  |  | 1 nM | > 4000 nM |  | 7740 nM | 9990 nM |  |
| Cc1ccc(NC(=O)CN(Cc2ccc(C(=O)NO)cc2)C(=O)c2cccc(N(C)C)c2)cc1 | 38 nM | 204 to 263 | 204 to 263 | 49 nM | > 10000 nM |  |  |  |  |
| Cc1ccc(C(=O)N(CC(=O)NC2CCCCC2)Cc2ccc(C(=O)NO)cc2)cc1 | 16 nM |  |  | 11 nM | > 3000 nM |  |  | 12300 nM |  |
| CCCCNC(=O)CN(Cc1ccc(C(=O)NO)cc1)C(=O)c1ccc(N(C)C)cc1 | 14 nM |  |  | 14 nM | > 2000 nM |  |  | 6990 nM |  |
